Earlier results as cited in US7857977B2, “Packaging of ferric pyrophosphate for dialysis” (Rockwell Medical Technologies, Inc., priority 2005, dated 2010).

iron-dextran
fraction of the iron that is bioavailable (after intravenous injection): about half
adverse reactions during injection (formulated in water containing 0.9% sodium chloride, parenteral): occasionally causes severe allergic reactions, fever and rashes
